Only a part is listed here, and it is no random draw. Records with an inconclusive call do not appear. Calls of active or inactive are those of the source. Calls come from the whole dose curve; as a rule, active = well fitted activation curve with a large enough effect; inconclusive = small, poorly fitted or top-dose-only effect; inactive = no such curve, though single readings can be large or run the other way.

A short description of this test: qHTS Assay for Agonists of the Thyroid Stimulating Hormone Receptor: Activators of Intracellular cAMP Concentrations in Parental HEK 293. Note: % of control where 0% means no effect; nearly all actives have a fitted effect of over 55% in size. The note with it: parental HEK293 CNG cAMP sensor, membrane potential fluorescence; at 57.1 µM (top of the series).
In the case of `CCOP1(=S)c2c(C)nn(CCC#N)c2N=C(c2ccc(F)cc2)N1C` (stereo unspecified), the activation is inactive: 10.3%.
